Among the data in PubChem BioAssay AID588795 (National Center for Advancing Translational Sciences (NCATS), 2011) are activity change, negative = inhibition values, retold here.

Chains of the proteins cited; added tags and fusions are not shown.
UniProt P39748, whole entry: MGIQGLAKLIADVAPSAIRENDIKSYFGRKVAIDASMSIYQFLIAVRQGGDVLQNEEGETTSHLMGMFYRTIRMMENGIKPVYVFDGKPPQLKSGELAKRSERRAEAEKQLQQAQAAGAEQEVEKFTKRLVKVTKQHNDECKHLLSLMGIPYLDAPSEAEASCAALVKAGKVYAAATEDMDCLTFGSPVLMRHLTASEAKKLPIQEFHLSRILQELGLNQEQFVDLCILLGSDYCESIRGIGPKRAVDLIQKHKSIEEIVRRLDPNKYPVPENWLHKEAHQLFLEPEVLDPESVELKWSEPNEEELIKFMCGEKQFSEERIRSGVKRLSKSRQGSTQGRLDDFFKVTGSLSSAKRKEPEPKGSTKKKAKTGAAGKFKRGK

This is a selection; strong and weak results do not stand in their true shares. Activity calls are given as the source filed them. Calls follow the shape of the dose curve; as a rule, active = well fitted inhibition curve with a large enough effect; inconclusive = small, poorly fitted or top-dose-only effect; inactive = no such curve, though single readings can be large or run the other way.
% is scaled to controls: 0 for no effect and ±100 for the full control effect.

The target of this assay is Flap endonuclease 1 (Homo sapiens) (UniProt P39748). The experiment in a line: qHTS Assay for the Inhibitors of Human Flap endonuclease 1 (FEN1). Also: nearly all actives have a fitted effect of over 65% in size. To be noted: Recombinant FEN1 flap cleavage, fluorescence, 15 min; at 114 µM (top of the series).
For `CCC(=O)N(c1ccccc1)C1(COC)CCN(CCc2cccs2)CC1`, the activity change, negative = inhibition was inactive: -4.95%.

On to `CCC(=O)N(c1ccccc1)C1(COC)CCN(CCn2nnn(CC)c2=O)CC1`, for which the activity change, negative = inhibition was inactive: 12.6%.
